The term stoichiometry N denotes the number of molecules, sites or subunits per partner or assembly.

In paper PMC3936235 one finds stoichiometry N and increase in the pixels showing association upon DNA damage data, which are given here for 2 substances.

The target in assay [1] is T17N-CyPet (dominant inactive mutant of the Rac1 donor chain) (UniProt P63000). As to the kind of experiment: Number and Brightness analysis; molecular brightness in each pixel, calibrated against free CyPet, YPet or EGFP as monomers; live NIH3T3 cells, transiently transfected; before and after micro-irradiation of the nucleus (DNA damage).
Assay [2] addresses Rac1-CyPet (wild type donor chain of the Rac1 FLARE dual chain FRET biosensor) (UniProt P63000). The assay is described as above.
The target of assay [3] is importin-α-GFP (importin-α2, karyopherin-alpha-2, tagged to EGFP) (UniProt P52292). Briefly: cross Number and Brightness (cross variance) analysis; cross variance of the intensity fluctuations of the two fluorescent proteins in each pixel; live NIH3T3 cells, transiently co-transfected; before and after micro-irradiation of the nucleus (DNA damage).

On to “T17N-CyPet (dominant inactive mutant of the Rac1 donor chain) (from UniProt P63000 1-192) (natural protein)”, for which the stoichiometry N in assay [1] was above 2.

In turn, “Rac1-CyPet (wild type donor chain of the Rac1 FLARE dual chain FRET biosensor) (from UniProt P63000 1-192) (natural protein)” displayed a stoichiometry N in assay [2] of 2. The substance further returned an increase in the pixels showing association upon DNA damage in assay [3] of 21.9%.
